Only a part is listed here, and it is no random draw. Some salts and complexes are drawn in separate pieces, as the source files them; their charges need not balance. The source made the active and inactive calls.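 The calls were made as follows: active = activation above the mean activation of all test compounds in the run plus 3 SD (cut at about 38% in these data); inactive = the rest.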
Each compound was assayed against Trace amine-associated receptor 1 (Homo sapiens) (UniProt Q96RJ0) (assay: human TAAR1 agonists, primary screen, Fluo-8 calcium fluorescence, CHO RD-HGA16 cells (AID 624467)). Settings: CHO RD-HGA16 TAAR1, Fluo-8 calcium fluorescence; at 3 µM; active compounds read high; vehicle wells 0%, saturating PEA agonist 100%.

Protein sequences, listed by entry. Tags and fused reporters are not part of them.
UniProt Q96RJ0, whole entry: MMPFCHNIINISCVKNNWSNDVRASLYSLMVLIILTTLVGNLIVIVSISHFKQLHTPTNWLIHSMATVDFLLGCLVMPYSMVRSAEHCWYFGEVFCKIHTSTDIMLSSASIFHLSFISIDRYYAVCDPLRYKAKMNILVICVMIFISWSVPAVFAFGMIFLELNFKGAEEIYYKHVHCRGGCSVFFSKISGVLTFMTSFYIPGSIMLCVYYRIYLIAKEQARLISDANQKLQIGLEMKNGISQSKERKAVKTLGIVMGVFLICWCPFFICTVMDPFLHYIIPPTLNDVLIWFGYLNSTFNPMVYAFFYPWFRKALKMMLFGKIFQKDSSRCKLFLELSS

| Structure (SMILES) | activation |
| --- | --- |
| CCc1ccc(OP(C)(=O)Nc2cccnc2)cc1 (configuration not stated) | inactive: 2.09% |
| CP(=O)(Oc1ccccc1)N1CCOC1=O (configuration not stated) | inactive: 2.4% |
| O=C(OCCCN1CCCC1)C(O)(c1ccccc1)C1CCCCC1 (configuration not stated) | inactive: 8.49% |
| COc1ccccc1OP(C)(=O)Nc1c(C)n(C)n(-c2ccccc2)c1=O (configuration not stated) | inactive: 5.58% |
| COc1ccc(OP(C)(=O)Nc2ccc(Br)cc2)cc1 (configuration not stated) | inactive: 2.85% |
| CCN(CC)CC(O)COC(=O)C(O)(c1ccccc1)C1CCCCC1 (configuration not stated) | inactive: 1.29% |
| CN(C)C(=O)c1c([N+](=O)[O-])cc([N+](=O)[O-])cc1[N+](=O)[O-] | inactive: 3% |
| CP(=O)(Nc1ccc(Cl)cc1)Oc1ccc(F)cc1 (configuration not stated) | inactive: 6.76% |
| CC(C)(C)c1ccc(OP(C)(=O)O)cc1 | inactive: 3.39% |
| COc1ccccc1OP(C)(=O)Nc1ccccc1Br (configuration not stated) | inactive: -1.44% |
| CP(=O)(OC12CC3CC(CC(C3)C1)C2)OC12CC3CC(CC(C3)C1)C2 | active: 64.2% |
| CCOC(=O)c1ccc(NP(C)(=O)Oc2ccc(Cl)cc2)cc1 (configuration not stated) | inactive: 1.31% |
| Nc1ccc2c(ccc3cccnc32)n1.O=[N+]([O-])c1cc([N+](=O)[O-])c(O)c([N+](=O)[O-])c1 | inactive: 3.47% |
| COc1ccc(OP(C)(=O)Nc2ccccc2Br)cc1 (configuration not stated) | inactive: 2.7% |
| COc1ccccc1OP(C)(=O)Nc1ccc(C)c(C)c1 (configuration not stated) | inactive: 2.79% |
| Cc1cc(C)cc(OP(C)(=O)Nc2cccc(C(F)(F)F)c2)c1 (configuration not stated) | inactive: 3.77% |
| O=C1C(O)=C([N+](=O)[O-])C(=O)C(O)=C1[N+](=O)[O-] | inactive: 1% |
| CP(=O)(OCCOc1ccccc1)OCCOc1ccccc1 | inactive: 0.01% |
| CCCCCCCCCCCCCCCC1C[N+](C)(C)CCOP(C)(=O)O1 (configuration not stated) | inactive: 33% |

| Structure (SMILES) | activation |
| --- | --- |
| CP(=O)(Nc1ccc(Cl)cc1Cl)Oc1ccccc1 (configuration not stated) | inactive: 2.85% |
| CN(C)CCOC(=O)C(O)(c1ccccc1)C1CCCC1 (configuration not stated) | inactive: 11.7% |
| COc1ccc(OP(C)(=O)Nc2ccccn2)cc1 (configuration not stated) | inactive: 15.4% |
| COc1ccccc1OP(C)(=O)Nc1ccc(Br)cc1 (configuration not stated) | inactive: 4.43% |
| CCc1ccc(OP(C)(=O)O)cc1 | inactive: 7.83% |
| COc1ccccc1OP(C)(=O)Nc1ccc(C)cc1C (configuration not stated) | inactive: -0.1% |
| CP(=O)(Nc1ccccn1)Oc1ccccc1 (configuration not stated) | inactive: 16.5% |
| O=[N+]([O-])c1cc([N+](=O)[O-])c(Nc2ccccn2)c([N+](=O)[O-])c1 | inactive: 9.91% |
| Cc1c(NP(C)(=O)Oc2ccc(C(C)C)cc2)c(=O)n(-c2ccccc2)n1C (configuration not stated) | inactive: 10.8% |
| CC(C)c1ccc(OP(C)(=O)Nc2ccc(SC(F)(F)F)cc2)cc1 (configuration not stated) | inactive: 5.56% |
| CP(=O)(Nc1ccccc1F)Oc1ccccc1 (configuration not stated) | inactive: 12.8% |
| O=[N+]([O-])c1cc([N+](=O)[O-])c(Nc2ccc(Cl)cc2)c([N+](=O)[O-])c1 | inactive: 4.47% |
| COc1ccc2c(c1O)-c1c(O)c(OC)cc3c1[C@H](C2)[N+](C)(C)CC3.O=[N+]([O-])c1cc([N+](=O)[O-])c([O-])c([N+](=O)[O-])c1[O-] | inactive: 5.42% |
| O=C(OCCN1CCN(CCOCc2ccccc2)CC1)C(O)(c1ccccc1)c1ccccc1 | inactive: 2.88% |
| O=C(OC1CN2CCC1CC2)c1ccc([N+](=O)[O-])cc1 (configuration not stated) | inactive: 8.65% |
| COc1ccc(OP(C)(=O)Nc2ccc(SC(F)(F)F)cc2)cc1 (configuration not stated) | inactive: 11.7% |
| CCOC(=O)c1ccc(NP(C)(=O)Oc2ccc(F)cc2)cc1 (configuration not stated) | inactive: 1.22% |
| CCN(CC)CCCNc1ccccc1[N+](=O)[O-].O=[N+]([O-])c1cc([N+](=O)[O-])c(O)c([N+](=O)[O-])c1 | inactive: -0.42% |
| CCCCCOc1ccc(NP(C)(=O)Oc2ccc(Cl)cc2Cl)cc1 (configuration not stated) | inactive: 3.29% |

| Structure (SMILES) | activation |
| --- | --- |
| O=[N+]([O-])c1cc([N+](=O)[O-])c(OC2CCCCC2O)c([N+](=O)[O-])c1 (configuration not stated) | inactive: 4.14% |
| CP(=O)(Nc1ccccc1)Oc1ccc(F)cc1 (configuration not stated) | inactive: 4.06% |
| CCN(CC)CCCOC(=O)C(O)(c1ccccc1)C1CCCCC1 (configuration not stated) | inactive: 4.23% |
| Cc1c([N+](=O)[O-])cc([N+](=O)[O-])c(Br)c1[N+](=O)[O-] | inactive: 2.14% |
| COc1ccc(NP(C)(=O)Oc2ccccc2OC)cc1 (configuration not stated) | inactive: 3.76% |
| CN(C)CCOC(=O)C(O)(c1ccccc1)C1CCCCC1 (configuration not stated) | inactive: 10.2% |
| COc1ccc(OP(C)(=O)Nc2cccc(Br)c2)cc1 (configuration not stated) | inactive: 0.75% |
| Cc1c(C(c2ccc3c(c2)OCO3)c2c(C)n(C)n(-c3ccccc3)c2=O)c(=O)n(-c2ccccc2)n1C.O=[N+]([O-])c1cc([N+](=O)[O-])c(O)c([N+](=O)[O-])c1 | inactive: -0.13% |
| Cc1cc(-c2cccc3ccccc23)c(C)cn1.O=[N+]([O-])c1cc([N+](=O)[O-])c(O)c([N+](=O)[O-])c1 | inactive: 14.4% |
| O=[N+]([O-])c1cc([N+](=O)[O-])c(NCC2CCS(=O)(=O)C2)c([N+](=O)[O-])c1 (configuration not stated) | inactive: 11.1% |
| O=[N+]([O-])c1ccc(OP2(=O)COCCO2)cc1 (configuration not stated) | inactive: -0.33% |
| CCOP(=O)(CC)OCC | inactive: 0.4% |
| CCOP(C)(=S)SCC(=O)NC(C)(CC)C(=O)O (configuration not stated) | inactive: 0.06% |
| CP(=O)(Nc1ccc(SC(F)(F)F)cc1)Oc1ccc(F)cc1 (configuration not stated) | inactive: 7.03% |
| O=[N+]([O-])c1cc([N+](=O)[O-])c(C(F)(F)F)c([N+](=O)[O-])c1O | inactive: 9.79% |
| Cc1ccccc1NP(C)(=O)Nc1ccccc1C | inactive: 3.5% |
| CP(=O)(Nc1ccc2c(c1)OCCO2)Oc1ccccc1 (configuration not stated) | inactive: 7.78% |
| CN(Cc1cccnc1)C(=O)COc1ccc(Cl)c(Cl)c1.O=[N+]([O-])c1cc([N+](=O)[O-])c(O)c([N+](=O)[O-])c1 | inactive: 6.03% |
| O=[N+]([O-])c1cc([N+](=O)[O-])c(-n2nnc3ccccc32)c([N+](=O)[O-])c1 | inactive: 16.6% |
